What all share (format): cell-based
Test [1] has as its target T1, CXCR2 (Homo sapiens, UniProt P25025).
T1 construct: expressed in transfected cells
Nature of the test: NanoBRET-based G protein activation inhibition assay (REGA-SIGN Gαi1 dissociation) in HEK293A.CXCR2 cells. The following applies: normalized to Imax of navarixin = 100%, n = 3. As for the experimental part: Cells were trypsinized and resuspended at 3 × 10^5 cell/mL in the growth medium, whereafter they were incubated for 2 hours at RT. Cells were transfected in suspension using FuGENE® HD Transfection Reagent at a 3:1 reagent to DNA ratio in Opti-MEMTM I Reduced-Serum Medium, with the final DNA concentration of 1 μg/μL. The transfection mixture was incubated for 10 min at RT before adding it to the cell suspension. Transfected cells were seeded at 3.0 × 10^4 cells/well in a white, clear, flat-bottom 96-well plate coated with 100 μg/mL poly-D-lysin ([…], Sigma Aldrich) and incubated for 48 h at 37°C and 5% CO2. […] (2023)]. Following the 48-h incubation period, cells were washed with the assay buffer. Compounds were serially diluted in 1:500 Nano-Glo® Vivazine^TM working solution (#N2581, Promega), and 90 μL of compound/Vivazine mix was added, followed by incubation for 45 min at 37°C and 5% CO2. Plates were transferred to the FLIPR Penta system (Molecular Devices) at 37°C, and all steps onward are automated and performed by the FLIPR Penta system. After a 10-min equilibration period, the baseline BRET signal was determined by five consecutive reads followed by automatic administration of 10 μL of 10× ligand (Table 1) to the cell plate. Changes in the BRET signal was measured for 10 min, with each read spaced by 2.5 s. […] BRET ratios were extracted from ScreenWorks software (Molecular Devices) and represent the ratio between the acceptor emission of […]2 or mNG (G protein or β-arrestin recruitment, respectively) and NLuc donor emission. The basal BRET ratio was defined as the average BRET ratio of the five consecutive readings preceding ligand addition. Changes in BRET values post ligand administration (ΔBRET) were calculated for each well as a percentage difference to the previously defined basal BRET ratio. Average ΔBRET values were baseline corrected by subtracting the average negative control BRET ratio (unstimulated condition). […] AUCs were normalized to the positive control (stimulated condition); whereafter, dose-response curves were fitted to log (inhibitor) vs response (three parameters) in GraphPad 10.2.0 (GraphPad Software). […] Calculation 1: calculation of the BRET signal. • 1. […] NC correctedΔBRET=Δ[…]. • 4. a. Neg AUC of NC correctedΔBRET=Gα activation read out. b. Pos AUC of NC correctedΔBRET=β-arrestin recruitment.
(In general: BRET reads energy transfer from a luciferase to a nearby fluorophore.)

Protein sequences, listed by entry. Tags and fused reporters are not part of them.
UniProt P25025, whole entry: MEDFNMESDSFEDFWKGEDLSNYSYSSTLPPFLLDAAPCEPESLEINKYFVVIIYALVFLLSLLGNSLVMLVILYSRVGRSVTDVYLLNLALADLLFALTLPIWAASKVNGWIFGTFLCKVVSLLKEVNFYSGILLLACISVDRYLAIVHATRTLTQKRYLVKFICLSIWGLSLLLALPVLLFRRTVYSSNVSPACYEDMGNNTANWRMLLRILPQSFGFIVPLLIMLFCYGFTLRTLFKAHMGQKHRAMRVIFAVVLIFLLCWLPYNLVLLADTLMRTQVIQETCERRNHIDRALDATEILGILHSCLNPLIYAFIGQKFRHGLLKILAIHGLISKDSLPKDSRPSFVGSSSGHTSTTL

In test [2] the target is T1, CXCR2. Nature of the test: Bias analysis (bias plot, bias index) of β-arrestin1 recruitment inhibition versus Gαi1 activation inhibition, navarixin as reference. The following applies: all ELR+ chemokines; navarixin as reference antagonist. As for the experimental part:
For signaling bias calculations, constraints were set to bottom values equal to zero. The calculated top values generated by nonlinear fit log (inhibitor) vs response (three parameters) in GraphPad 10.2.1 were taken as Imax. […] The bias index values were calculated, as is shown in calculation 2. Briefly, log(Imax/IC50) was calculated. […] Finally, the bias index was calculated by subtracting the ∆log (Imax/IC50) of the tested compound from the stated reference pathway from that of the pathway of interest. […] The statistical significance of H1 was evaluated using a one-sample T-test with Benjamini-Hochberg correction applied for multiple comparisons, whereas H2 was assessed using a one-way ANOVA followed by Tukey’s test.
Bias index=∆LogImax/IC50P1:β−arr1−∆LogImax/IC50P2:Gai1 .
Bias plots are equimolar comparisons between the two pathways of interest.
A general note: Activated receptors often draw arrestin, which recruitment assays turn into a signal.

Test [3] has as its target T1, CXCR2. Briefly: NanoBRET β-arrestin1 recruitment inhibition assay (NanoLux) in HEK293A cells. As to conditions: normalized to Imax of navarixin = 100%, n = 3. As for the experimental part: Cells were trypsinized and resuspended at 3 × 10^5 cell/mL in the growth medium, whereafter they were incubated for 2 hours at RT. Cells were transfected in suspension using FuGENE® HD Transfection Reagent at a 3:1 reagent to DNA ratio in Opti-MEMTM I Reduced-Serum Medium, with the final DNA concentration of 1 μg/μL. The transfection mixture was incubated for 10 min at RT before adding it to the cell suspension. Transfected cells were seeded at 3.0 × 10^4 cells/well in a white, clear, flat-bottom 96-well plate coated with 100 μg/mL poly-D-lysin ([…], Sigma Aldrich) and incubated for 48 h at 37°C and 5% CO2. HEK293A cells were transiently co-transfected with plasmids encoding β-arrestin1 protein tagged with NLuc (donor) and CXCR2 protein tagged with mNeonGreen (mNG) acceptor in a 1:10 donor to acceptor ratio, as described previously ([Luís et al., 2022]). All subsequent steps are identical to those in “NanoBRET-based G protein activation inhibition assay,” which are described above. Measurements were acquired using a 440- to 480-nm donor emission filter (#0200-6179, Molecular Devices) and a 515- to 575-nm acceptor emission filter (#0200-6203, Molecular Devices) BRET ratios were extracted from ScreenWorks software (Molecular Devices) and represent the ratio between the acceptor emission of […]2 or mNG (G protein or β-arrestin recruitment, respectively) and NLuc donor emission. The basal BRET ratio was defined as the average BRET ratio of the five consecutive readings preceding ligand addition. Changes in BRET values post ligand administration (ΔBRET) were calculated for each well as a percentage difference to the previously defined basal BRET ratio. Average ΔBRET values were baseline corrected by subtracting the average negative control BRET ratio (unstimulated condition). […] AUCs were normalized to the positive control (stimulated condition); whereafter, dose-response curves were fitted to log (inhibitor) vs response (three parameters) in GraphPad 10.2.0 (GraphPad Software). […] Calculation 1: calculation of the BRET signal. • 1. […] NC correctedΔBRET=Δ[…]. • 4. a. Neg AUC of NC correctedΔBRET=Gα activation read out. b. Pos AUC of NC correctedΔBRET=β-arrestin recruitment.

For `CC[C@@H](Nc1c(Nc2cccc(C(=O)N(C)C)c2O)c(=O)c1=O)c1ccc(C)o1` [Navarixin, navarixin, reference compound], the “Imax Gαi1 (maximum observed inhibitory effect)” value on CXCR2 [1] (CXCL1 at EC80), at CXCR2 [1] (CXCL2 at EC80), at CXCR2 [1] (CXCL3 at EC80), on CXCR2 [1] (CXCL5 at EC80), on CXCR2 [1] (CXCL6 at EC80) and at CXCR2 [1] (CXCL7 at EC80) was 100% throughout. Also, the “Imax Gαi1 (maximum observed inhibitory effect)” value on CXCR2 [1] (CXCL8 at EC80) worked out at 100%. Moreover, the “bias profile (bias plot), β-arrestin1 recruitment inhibition vs Gαi1 activation inhibition” value at CXCR2 [2] is on record as “unbiased”. Moreover, the “Imax βarr1 (maximum observed inhibitory effect)” value on CXCR2 [3] (CXCL1 at EC80), at CXCR2 [3] (CXCL2 at EC80), on CXCR2 [3] (CXCL3 at EC80), at CXCR2 [3] (CXCL5 at EC80), at CXCR2 [3] (CXCL6 at EC80) and on CXCR2 [3] (CXCL7 at EC80) was 100% in each case. The “Imax βarr1 (maximum observed inhibitory effect)” value on CXCR2 [3] (CXCL8 at EC80) came out at 100%.
